In PubChem BioAssay AID504707 (The Scripps Research Institute Molecular Screening Center, 2011) one finds activation data, which are given here for 75 molecules.

Each structure is given as a SMILES string. The list shows a part of the results, in another mix than the full data. The source made the active and inactive calls.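 The calls were made as follows: active = percent activation above the mean of all tested compounds plus 3 SD (cut at about 19% in these data); inactive = the rest.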

The test deals with cAMP-dependent protein kinase type I-alpha regulatory subunit (Bos taurus) + cAMP-dependent protein kinase catalytic subunit beta (Mus musculus) (UniProt P00514+P68181). The test can be described thus: activators of PKA-R1A holoenzyme, primary screen, biochemical, fluorescence polarization, Cy5-IP20, bovine R1A, mouse PKAc (AID 504707).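 Also: higher means more PKAc released from R1A so a rise in polarization.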 The following applies: PKA-R1A dissociation, at 11.4 µM, stronger effect = higher value, scaled: DMSO 0%, 113 µM cGMP 100%. In general terms: In fluorescence polarisation assays a small probe gives low polarisation when free and higher when bound to something large.
For `Cc1ccc(C(=O)NCC2(N(C)C)CCCCC2)o1`, the activation was inactive: 5.05%.
In the case of `CCCOc1ccc(C(=O)NCC2(N(C)C)CCCCC2)cc1OC`, the activation is inactive: -3.05%.
On to `CN1CCC(Nc2cccc(F)c2)CC1`, for which the activation was inactive: 3.59%.
In the case of `O=C(NCC1(N2CCCCC2)CCCCC1)c1cncc(Br)c1`, the activation was inactive: -17.9%.
As to `COc1cc(OC)c(C(=O)NCC2(N(C)C)CCCCC2)cc1OC`, the activation is inactive: -13.7%.
The same measure for `O=C(NCC1(N2CCOCC2)CCCCC1)c1cc(F)c(F)cc1Cl`: inactive: -0.93%; for `CC(C)c1ccc(NC2CCN(C(=O)OC(C)(C)C)CC2)cc1`: inactive: 6.8%; for `COc1ccc(CN(CCCl)CCCl)cc1Cl`: inactive: -0.58%.
The same measure for `CN(C)c1cccc(C(=O)NCC2(N3CCCCC3)CCCCC2)c1`: inactive: -6.47%; for `O=C(NCC1(N2CCOCC2)CCCCC1)c1cc(=O)[nH]c2ccccc12`: inactive: -4.54%.
Next, `COc1cc(C(=O)NCC2(N3CCCCC3)CCCCC2)ccc1OC(F)F`: inactive: -2.64%.
`COc1ccc(NC2CCN(C(=O)OC(C)(C)C)CC2)cc1`: the activation is inactive: -5.44%.
`CC(C)c1ccc(C(=O)NCC2(N3CCOCC3)CCCCC2)cc1`: the activation is inactive: -5.28%.
As to `CN1CCN(CCOC(=O)C(O)(c2ccccc2)c2ccccc2)CC1`, the activation is inactive: -0.63%.
Turning to `O=C(NCC1(N2CCCCC2)CCCCC1)c1cccc(C(F)(F)F)c1`, the activation is inactive: 3.13%.
Regarding `CCN1CCC(Nc2ccc(Cl)cc2)CC1`, the activation was inactive: 0.54%.
Turning to `N#CC1(Nc2ccccc2)CCN(CCc2ccccc2)CC1`, the activation was inactive: -1.31%.
For `CSc1ccc(C(=O)NCC2(N3CCOCC3)CCCCC2)cc1`, the activation was inactive: 3.97%.
As to `O=C(NCC1(N2CCCCC2)CCCCC1)c1cccc([N+](=O)[O-])c1`, the activation was inactive: -7.15%.
With `O=C(NCC1(N2CCCCC2)CCCCC1)c1ccc(OC(F)F)cc1`, the activation was inactive: -4.7%.
As to `CCOC(=O)N1CCC(Nc2cccc(C)c2)CC1`, the activation is inactive: 2.42%.
The same measure for `COc1cc(C(=O)NCC2(N(C)C)CCCCC2)ccc1OC(F)F`: inactive: -6.96%; for `CCCCOc1ccc(C(=O)NCC2(N3CCOCC3)CCCCC2)cc1`: inactive: 6%.
The same measure for `O=P1(N(CCCl)CCCl)SCCCS1`: inactive: 10.1%; for `O=C(NCC1(N2CCCCC2)CCCCC1)c1ccc(F)cc1`: inactive: 2.92%; for `CCOC(=O)N1CCC(Nc2ccc(F)cc2)CC1`: inactive: 0.43%.
In the case of `COc1ccc(NC2CCN(CCc3ccccc3)CC2)c(OC)c1`, the activation was inactive: -5.57%.
With `O=C1CCN(Cc2ccccc2)CC1`, the activation was inactive: -2.17%.
Next, `CCOc1ccc(C)cc1CN(CCCl)CCCl`: inactive: 10.4%; `N#CC1(Nc2ccccc2)CCN(Cc2ccccc2)CC1`: inactive: -2.9%.
As for `O=C(NCC1(N2CCCCC2)CCCCC1)c1ccc(Cl)s1`, the activation is inactive: 0.33%.
Next, `O=C(OC1CN2CCC1CC2)C1c2ccccc2Oc2ccccc21` (stereo not given): inactive: -6.77%; `COc1ccc(Cl)cc1C(=O)NCC1(N2CCOCC2)CCCCC1`: inactive: -8.48%; `CCOC(=O)N1CCC(Nc2ccc(OC)cc2)CC1`: inactive: -2.99%.
The same measure for `O=C(NCC1(N2CCCCC2)CCCCC1)c1ccc(Cl)nc1`: inactive: -1.87%.
Next, `Cc1cc(C)cc(N(C(=O)c2ccccc2)C2CCN(C(=O)OC(C)(C)C)CC2)c1`: inactive: -15.4%; `O=C(NCC1(N2CCOCC2)CCCCC1)c1cc2ccccc2o1`: inactive: 2.85%; `CSc1ccccc1C(=O)NCC1(N2CCCCC2)CCCCC1`: inactive: -11.8%.
For the molecule `Cc1cccc(NC2(C#N)CCN(Cc3ccccc3)CC2)c1`, the activation is inactive: 3.24%.
Consider `COc1ccc(C(=O)NCC2(N3CCCCC3)CCCCC2)cc1`, for which the activation is inactive: 7.7%.
In the case of `COc1ccc(C(=O)NCC2(N3CCCCC3)CCCCC2)c(OC)c1OC`, the activation is inactive: -13.8%.
As to `CC(C)(C)OC(=O)N1CCC(N(C(=O)c2ccccc2)c2ccc(F)cc2)CC1`, the activation was inactive: 2.11%.
Next, `O=C(NCC1(N2CCCCC2)CCCCC1)c1ccc(=O)[nH]c1`: inactive: 6.27%; `O=C(NCC1(N2CCCCC2)CCCCC1)c1cccs1`: inactive: -11.3%; `CN1CCC(Nc2ccc(Cl)cc2)CC1`: inactive: -14.9%.
The same measure for `COc1cccc(C(=O)N(c2cc(C)cc(C)c2)C2CCN(C(=O)OC(C)(C)C)CC2)c1`: inactive: 0.57%; for `COc1cc(OC)cc(C(=O)NCC2(N3CCOCC3)CCCCC2)c1`: inactive: -11.1%.
As for `CCC(CO)(C(=O)OC1CN2CCC1CC2)c1ccccc1` (stereo not given), the activation was inactive: -5.99%.
Take `CC(C)(C)OC(=O)N1CCC(Nc2ccccc2)CC1`: the activation is inactive: -2.2%.
The same measure for `O=C(O)C1(Nc2ccccc2)CCN(Cc2ccccc2)CC1`: inactive: 1.88%; for `CCCOc1ccc(C(=O)NCC2(N(C)C)CCCCC2)cc1`: inactive: -5.12%.
For `CCOc1ncccc1C(=O)NCC1(N2CCOCC2)CCCCC1`, the activation was inactive: 2.42%.
In the case of `CN1CCC(Nc2ccc(F)c(Cl)c2)CC1`, the activation was inactive: 2.15%.
Consider `O=C(NCC1(N2CCCCC2)CCCCC1)c1ccco1`, for which the activation was inactive: -6.66%.
In the case of `CN(C)c1ccc(C(=O)NCC2(N3CCCCC3)CCCCC2)cc1`, the activation was inactive: -1.68%.
The same measure for `Cn1c(=O)[nH]cc(N(CCCl)CCCl)c1=O`: inactive: 1.99%.
The same measure for `Cc1ccccc1NC1(C#N)CCN(Cc2ccccc2)CC1`: inactive: -8.61%; for `CCN1CCC(Nc2cccc(F)c2)CC1`: inactive: 12.5%; for `Cc1ccc(C(=O)NCC2(N3CCCCC3)CCCCC2)o1`: inactive: 6.23%.
In the case of `Fc1ccccc1NC1CCN(Cc2ccccc2)CC1`, the activation was inactive: 5.7%.
On to `Cc1ccc(NC2(C#N)CCN(Cc3ccccc3)CC2)cc1`, for which the activation is inactive: 1.36%.
The same measure for `CC(=O)N(c1ccccc1)C1CCNCC1`: inactive: 3.23%.
Take `COc1cc(OC)cc(C(=O)NCC2(N3CCCCC3)CCCCC2)c1`: the activation was inactive: -1%.
Turning to `CN(C)C1(CNC(=O)c2cccc(C#N)c2)CCCCC1`, the activation was inactive: -2.79%.
For `c1ccc(CN2CCC(Nc3ccccc3)CC2)cc1`, the activation is inactive: -3.01%.
The same measure for `CCCN1CCC(Nc2cc(OC)cc(OC)c2)CC1`: inactive: -2.26%; for `Cc1cc(N(CCCl)CCCl)ccc1C=O`: inactive: -7.42%; for `N#Cc1ccc(C(=O)NCC2(N3CCCCC3)CCCCC2)cc1`: inactive: -2.08%.
Take `CC(C)(C)OC(=O)N1CCC(N(C(=O)c2ccccc2)c2ccc(Cl)cc2)CC1`: the activation was inactive: -3.47%.
Next, `O=C(OC1CN2CCC1CC2)C1c2ccccc2C=Cc2ccccc21` (stereo not given): inactive: 6.42%; `CCOC(=O)N1CCC(Nc2ccc(C)cc2)CC1`: inactive: -5.42%; `N/C(=N\O)c1c(N)no[n+]1[O-]`: inactive: -4.46%.
In the case of `COc1ccc(C(=O)NCC2(N3CCOCC3)CCCCC2)cc1OC`, the activation was inactive: 1.13%.
`COc1cc(C(=O)NCC2(N3CCOCC3)CCCCC2)cc(OC)c1C`: the activation is inactive: -8.03%.
The same measure for `O=C(NCC1(N2CCOCC2)CCCCC1)c1cc(Br)ccc1Cl`: inactive: 0.62%.
